Values joined by “and” are separate entries in the source; they are usually repeats but may differ in a detail not shown here. Equal entries are not always repeated. Where two headings read alike, the source gives them in different places. Marks after values point to notes of the source that are not given here.
Columns and labels:
[1] = biological target: T1, insulin receptor (IR); interaction of IR-Rluc with IRS1-YFP in HEK293 cells (Homo sapiens, UniProt P06213); assay: BRET assay of IR activation (IR-Rluc/IRS1-YFP), single treatment, dose-response; format: cell-based; conditions: HEK293, 1 hour, 37°C, minimal data set for Figure 1, average
T1 construct: expressed in transfected cells; host or cells: HEK293 cells, transient co-transfection; plasmids provided by Dr. Tarik Issad (Cochin Institute, Paris)
Protocol: (§1) HepG2 and HEK293 cells were maintained at 37°C, 5% CO2 in complete RPMI and Dulbecco’s modified Eagle’s medium (DMEM), respectively, containing 0.3 mg/ml glutamine, 100 IU/ml penicillin, and 100 µg/ml streptomycin) supplemented with 10% fetal calf serum (Gibco, Carlsbad, CA, USA). The transient transfection in HEK293 cells was carried out in 75 cm flask containing 10^7 cells using Lipofectamine 2000 and 5 µg of IR-Rluc and 5 µg of IRS1-YFP (for BRET and phosphorylation experiments) as previously described. All assays were performed 48 hours post-transfection.
(§2) BRET technology was used for IR activation and its interaction with IRS1 as previously described. […] Following treatments, 10 μl of Coelenterazine h was added to a final concentration of 5 µ M and BRET measurements were carried out using the Tristar 2 multi-label plate reader (Berthold, Germany), allowing luminescence recording and signal integration at 480 nm and 540 nm.
(§3) Statistical analyses were performed statistical significance between the different treatments and conditions as indicated in the figures and tables and their captions. […] The significance is indicated in the figures by stars (****p-value < 0.0001, ***p-value < 0.001, ** p-value < 0.01, * p-value < 0.05), and the absence of stars means non-significant (p-value > 0.05). However, the two-way ANOVA was used for multiple comparisons to determine the statistical significance between the different peptides when compared to each other in the different assays as described in the tables.

By UniProt entry, the sequences of proteins in these tests, tags left out. Residues count along the entry.
UniProt P06213, 28-758 limits assumed: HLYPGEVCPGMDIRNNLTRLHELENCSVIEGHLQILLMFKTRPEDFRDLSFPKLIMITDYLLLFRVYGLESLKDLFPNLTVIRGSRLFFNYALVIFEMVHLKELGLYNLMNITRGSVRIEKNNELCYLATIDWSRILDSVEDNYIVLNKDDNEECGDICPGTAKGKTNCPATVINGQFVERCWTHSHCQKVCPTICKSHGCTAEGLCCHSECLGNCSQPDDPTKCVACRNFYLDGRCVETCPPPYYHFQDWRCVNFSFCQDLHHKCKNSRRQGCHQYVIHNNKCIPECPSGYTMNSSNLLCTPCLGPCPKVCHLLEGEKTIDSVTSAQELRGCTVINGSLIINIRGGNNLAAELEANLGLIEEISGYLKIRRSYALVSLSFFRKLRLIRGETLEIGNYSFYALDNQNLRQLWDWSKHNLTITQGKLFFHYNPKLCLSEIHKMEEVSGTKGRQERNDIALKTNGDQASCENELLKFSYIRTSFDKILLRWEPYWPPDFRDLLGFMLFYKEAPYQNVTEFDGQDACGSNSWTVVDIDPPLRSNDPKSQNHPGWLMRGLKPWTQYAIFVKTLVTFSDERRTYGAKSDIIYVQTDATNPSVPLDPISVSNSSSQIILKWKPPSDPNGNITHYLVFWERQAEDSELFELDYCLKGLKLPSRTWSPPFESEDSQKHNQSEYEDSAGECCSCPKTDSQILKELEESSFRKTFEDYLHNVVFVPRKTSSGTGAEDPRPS
UniProt P06213, 763-1382 limits assumed: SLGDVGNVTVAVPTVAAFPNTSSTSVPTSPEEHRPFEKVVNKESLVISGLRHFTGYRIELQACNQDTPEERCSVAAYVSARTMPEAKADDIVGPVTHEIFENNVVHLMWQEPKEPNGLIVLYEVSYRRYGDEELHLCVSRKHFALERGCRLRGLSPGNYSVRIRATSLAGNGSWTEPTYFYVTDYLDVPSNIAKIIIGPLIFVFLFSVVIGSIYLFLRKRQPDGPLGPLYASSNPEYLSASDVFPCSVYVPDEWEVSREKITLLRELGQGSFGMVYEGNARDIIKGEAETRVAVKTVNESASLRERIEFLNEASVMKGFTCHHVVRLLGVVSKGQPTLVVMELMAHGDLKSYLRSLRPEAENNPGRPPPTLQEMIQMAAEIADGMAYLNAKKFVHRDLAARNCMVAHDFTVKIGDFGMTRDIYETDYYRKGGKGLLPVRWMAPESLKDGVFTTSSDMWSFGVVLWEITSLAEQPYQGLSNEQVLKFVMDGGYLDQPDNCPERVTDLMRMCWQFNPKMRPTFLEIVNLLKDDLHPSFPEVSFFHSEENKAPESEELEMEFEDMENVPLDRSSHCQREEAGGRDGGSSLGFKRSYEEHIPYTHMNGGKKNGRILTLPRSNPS

[2] = system: insulin receptor (IR); insulin-induced IR-Rluc/IRS1-YFP BRET in HEK293 cells; assay: BRET assay of IR activation, peptides combined with insulin; format: cell-based, human
Protocol: as §1, §2
as §3, with “For BRET, the data were normalized by taking as 100% of the maximal insulin-induced BRET signal in the vehicle and analyzed using GraphPad Prism software (San Diego, CA, USA). Statistical” for “Statistical”, “tables. In this case, the different letters indicate statistically significant effects (p-value < 0.05), while the same letters indicate no significant difference between the different treatments compared to each other.” for “tables.”

[3] = system: HepG2 cells; assay: Glucose uptake assay (Glucose Uptake-Glo) in HepG2 cells; format: cell-based, human; conditions: 1 hour, 37°C
Protocol: Glucose uptake in HepG2 cells was carried out using Glucose Uptake-Glo Assay (Promega). For this, cells seeded in a 96-well white plate (50,000 cells/well) were first washed with PBS and starved in phenol red-, glucose-, and serum-free medium (Dulbecco’s modified Eagle’s medium containing 0.01 mM HEPES, 0.3 mg/ml glutamine, 100 IU/ml penicillin, and 100 µg/ml streptomycin). […] The treatment was removed, and the cells were washed once with PBS and then incubated with 50 μL/well of freshly prepared 2-deoxyglucose (500 μM) for 10 minutes at room temperature. The uptake process was stopped and neutralized, followed by the addition of 50 μl/well of 2-deoxyglucose-6-phosphate (2DG6P) detection reagent and incubation for 15-60 minutes at room temperature. The glucose-6-phosphate dehydrogenase (G6PDH) oxidizes 2DG6P to 6-phosphodeoxygluconate (6PDG) and reduces NADP + to NADPH. The reductase uses NADPH to convert the proluciferin to luciferin, which is then used by Ultra-Glo™ recombinant luciferase to produce luminescence. This luminescence, proportional to the amount of 2-deoxyglucose transported inside the cells upon treatment, was then measured using a 0.3–1 second integration on GloMax® Discover luminometer according to Glucose Uptake-Glo™ protocol.

Emax ([1]; HEK293, read-out: BRET, % of the maximal response of insulin, Average, peptide 0.001 mg/ml): 10.7%
Emax ([1]; HEK293, read-out: BRET, % of the maximal response of insulin, Average, peptide 0.005 mg/ml): 19.9%
Emax ([1]; HEK293, read-out: BRET, % of the maximal response of insulin, Average, peptide 0.01 mg/ml): 31.8%
Emax ([1]; HEK293, read-out: BRET, % of the maximal response of insulin, Average, peptide 0.05 mg/ml): 34.4%
Emax ([1]; HEK293, read-out: BRET, % of the maximal response of insulin, Average, peptide 0.1 mg/ml): 39.9%
Emax ([1]; HEK293, read-out: BRET, % of the maximal response of insulin, Average, peptide 0.5 mg/ml): 39%
Emax ([1]; HEK293, read-out: BRET, % of the maximal response of insulin, Average, peptide 1 mg/ml): 31.6%
Compound: CC(C)[C@H](N)C(=O)N1CCC[C@H]1C(=O)N[C@H](C(=O)O)C(C)C [Peptide P8, VPV]
insulin-induced BRET, % of insulin's response in the vehicle, Average ([2]; Average of Experiments 1-7, 1 μM insulin + 0.1 mg/ml peptide, HEK293, minimal data set for Figure 2): 149.0
insulin-induced BRET, % of insulin's response in the vehicle ([2]; Experiment 3, 1 μM insulin + 0.1 mg/ml peptide, HEK293, minimal data set for Figure 2): 166.4
insulin-induced BRET, % of insulin's response in the vehicle ([2]; Experiment 4, 1 μM insulin + 0.1 mg/ml peptide, HEK293, minimal data set for Figure 2): 149.5
insulin-induced BRET, % of insulin's response in the vehicle ([2]; Experiment 5, 1 μM insulin + 0.1 mg/ml peptide, HEK293, minimal data set for Figure 2): 127.2
insulin-induced BRET, % of insulin's response in the vehicle ([2]; Experiment 6, 1 μM insulin + 0.1 mg/ml peptide, HEK293, minimal data set for Figure 2): 152.7
% of maximal BRET (insulin-induced) ([2]; HEK293 cells, 1 μM insulin + 0.1 mg/ml peptide, 1 hour, 37°C, % of insulin's response in the vehicle taken as 100%, mean ± SD of five to seven independent experiments in triplicate): 121 ± 14^d %
profile on insulin-dependent BRET response in combined treatment (in words) ([2]; HEK293 cells, 0.1 mg/ml peptide + 1 μM insulin, compared to insulin alone (Vehicle)): potentiating
glucose uptake, specific luminescence signal, Average ([3]; Average of Experiments 1-5, HepG2, 0.1 mg/ml peptide or 1 μM insulin, minimal data set for Figure 5): 3788600
% of glucose uptake ([3]; HepG2 cells, 0.1 mg/ml peptide or 1 μM insulin, % of insulin's response taken as 100%, mean ± SD of five independent experiments in triplicate): 135 – 150% and 150 ± 18^e %

Source: paper PMC11952234, “Functional profiling of synthetic camel milk-derived peptides with implication in glucose transport and diabetes” (PLOS One, 2025)
